Data published in PubChem BioAssay.
The entries are a selection whose mix differs from that of the whole data set. Calls of active or inactive are those of the source.

Chains of the proteins cited; added tags and fusions are not shown. Lines headed by an entry give the natural chain unless they say otherwise; changes in a name come on top.
UniProt P02866, whole entry, looked up: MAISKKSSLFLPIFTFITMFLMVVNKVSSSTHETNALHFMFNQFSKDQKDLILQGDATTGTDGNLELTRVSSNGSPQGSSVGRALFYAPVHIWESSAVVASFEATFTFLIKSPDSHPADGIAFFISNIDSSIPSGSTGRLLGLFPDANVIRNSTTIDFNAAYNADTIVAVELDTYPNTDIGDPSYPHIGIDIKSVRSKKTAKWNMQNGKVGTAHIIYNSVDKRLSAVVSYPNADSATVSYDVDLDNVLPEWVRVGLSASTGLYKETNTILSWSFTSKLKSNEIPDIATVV
UniProt Q05397, whole entry, looked up: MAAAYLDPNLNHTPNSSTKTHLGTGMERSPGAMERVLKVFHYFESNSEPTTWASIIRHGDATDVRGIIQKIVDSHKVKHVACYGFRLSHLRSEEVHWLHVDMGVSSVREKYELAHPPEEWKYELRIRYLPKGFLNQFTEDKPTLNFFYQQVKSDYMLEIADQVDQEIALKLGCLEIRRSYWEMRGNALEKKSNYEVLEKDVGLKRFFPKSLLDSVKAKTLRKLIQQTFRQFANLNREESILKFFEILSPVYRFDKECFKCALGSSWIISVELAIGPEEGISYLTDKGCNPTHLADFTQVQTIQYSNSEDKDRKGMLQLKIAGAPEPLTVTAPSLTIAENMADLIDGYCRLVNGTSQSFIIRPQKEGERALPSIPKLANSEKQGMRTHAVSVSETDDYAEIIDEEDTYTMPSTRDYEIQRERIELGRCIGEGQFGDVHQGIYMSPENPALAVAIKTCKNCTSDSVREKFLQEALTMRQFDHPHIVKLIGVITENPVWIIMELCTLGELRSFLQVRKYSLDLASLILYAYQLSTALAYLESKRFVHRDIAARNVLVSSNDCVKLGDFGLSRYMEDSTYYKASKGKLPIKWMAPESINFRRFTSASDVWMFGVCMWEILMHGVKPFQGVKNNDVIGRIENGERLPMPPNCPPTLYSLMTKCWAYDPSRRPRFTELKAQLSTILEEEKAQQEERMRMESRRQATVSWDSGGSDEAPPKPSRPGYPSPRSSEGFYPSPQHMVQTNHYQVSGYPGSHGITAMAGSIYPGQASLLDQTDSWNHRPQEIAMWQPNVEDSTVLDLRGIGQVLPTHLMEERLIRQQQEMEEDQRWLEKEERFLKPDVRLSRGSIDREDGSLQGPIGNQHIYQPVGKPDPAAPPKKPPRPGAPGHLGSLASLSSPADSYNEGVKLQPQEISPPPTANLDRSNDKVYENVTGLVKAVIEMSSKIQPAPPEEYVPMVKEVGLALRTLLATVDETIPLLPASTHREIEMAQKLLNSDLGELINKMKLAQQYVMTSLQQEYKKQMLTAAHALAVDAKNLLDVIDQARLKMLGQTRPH
UniProt P19883: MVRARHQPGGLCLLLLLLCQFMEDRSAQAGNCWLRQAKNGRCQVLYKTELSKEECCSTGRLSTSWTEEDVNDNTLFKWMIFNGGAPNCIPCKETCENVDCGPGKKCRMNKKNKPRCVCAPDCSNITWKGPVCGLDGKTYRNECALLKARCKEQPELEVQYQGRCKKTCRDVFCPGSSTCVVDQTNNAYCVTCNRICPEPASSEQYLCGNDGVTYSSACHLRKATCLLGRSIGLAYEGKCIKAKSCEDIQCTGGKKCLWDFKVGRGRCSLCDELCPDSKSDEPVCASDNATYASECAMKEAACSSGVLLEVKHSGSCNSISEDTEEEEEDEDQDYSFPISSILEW
UniProt P09038, whole entry, looked up: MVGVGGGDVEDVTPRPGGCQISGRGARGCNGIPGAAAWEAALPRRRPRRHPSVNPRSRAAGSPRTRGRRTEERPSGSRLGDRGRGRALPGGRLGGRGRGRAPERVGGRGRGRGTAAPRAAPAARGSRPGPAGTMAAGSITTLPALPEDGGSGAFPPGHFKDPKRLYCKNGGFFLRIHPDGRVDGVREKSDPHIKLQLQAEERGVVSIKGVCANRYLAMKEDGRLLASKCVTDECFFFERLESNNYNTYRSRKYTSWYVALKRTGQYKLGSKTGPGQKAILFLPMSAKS
UniProt P22629, whole entry, looked up: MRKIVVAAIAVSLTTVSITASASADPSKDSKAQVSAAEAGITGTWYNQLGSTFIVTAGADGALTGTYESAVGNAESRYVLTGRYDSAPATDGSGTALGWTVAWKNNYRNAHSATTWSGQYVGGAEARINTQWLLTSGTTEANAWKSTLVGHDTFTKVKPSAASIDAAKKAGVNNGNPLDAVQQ
UniProt O14656: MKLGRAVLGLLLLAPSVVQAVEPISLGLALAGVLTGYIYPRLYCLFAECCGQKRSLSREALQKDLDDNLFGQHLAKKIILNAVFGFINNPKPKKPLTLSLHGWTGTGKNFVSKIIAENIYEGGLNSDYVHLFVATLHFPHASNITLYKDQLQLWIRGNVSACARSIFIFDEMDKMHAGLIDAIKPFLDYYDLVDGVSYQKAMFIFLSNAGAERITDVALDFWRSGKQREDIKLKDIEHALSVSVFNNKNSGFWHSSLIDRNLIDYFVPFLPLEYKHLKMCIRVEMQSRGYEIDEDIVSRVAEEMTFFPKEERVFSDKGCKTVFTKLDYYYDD

How the values were obtained:
[1] = compound binding in COS7 lysate, probe aLAP1, primary screen, cell lysate, small-molecule microarray (AID 1124); settings: probe aLAP1, fluorescence, higher = more signal;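 also: lysate comes from COS7 cells expressing LAP1 and is applied at 0.3 µg/mL; score merges spot fluorescence near 667 nm with signal-to-noise over triplicate slides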
Sam68 (KHDRBS1) = test: Sam68 small-molecule binders, primary screen, biochemical, small-molecule microarray, 635 nm fluorescence (AID 1125); settings: small-molecule microarray binding, higher = more signal;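 also: score merges 667 nm channel intensity with signal to noise over triplicate slides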
[2] = tested on: Chordin-like protein 2 (CHRDL2); test: CHRDL2 small-molecule binders, primary screen, biochemical, small-molecule microarray, 635 nm fluorescence (AID 1126); settings: small-molecule microarray binding, fluorescence 635 nm; higher = more signal;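 also: printed compound slides probed with Chrdl2 protein at 4 µg/mL for 1 h at 4 C; score merges 667 nm emission intensity with signal to noise over three replicate slides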
[3] = biological target: Concanavalin-A (Canavalia ensiformis) (UniProt P02866); test: ConA small-molecule binders, primary screen, artefact control for SMM control protein annotation, biochemical, small-molecule microarray, Alexa647 label, 635 nm (AID 1127); settings: ConA-A647 binding fluorescence, higher = more signal;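 also: z combines 667 nm emission intensity with signal-to-noise across three replicate slides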
[4] = anti-His antibody binders, primary screen, artefact control for SMM control protein annotation, biochemical, small-molecule microarray, 635 nm fluorescence (AID 1128); settings: anti-His Alexa647 antibody binding, higher = more signal;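 also: score merges feature fluorescence with signal-to-noise for each printed compound spot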
[5] = biological target: Focal adhesion kinase 1 (Homo sapiens) (UniProt Q05397); test: small-molecule microarray binders of FAK, primary screen, biochemical, 635/667 nm fluorescence, BSA, DTT (AID 1130); settings: PTK2 binding, 635 nm fluorescence, higher = more signal;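 also: composite of spot emission at 667 nm and signal to noise over triplicate slides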
[6] = tested on: Fibrinogen (Alexa647-labelled); test: fibrinogen binders on compound microarrays, profiling panel, artefact control for SMM control-protein annotation, biochemical, small-molecule microarray, 635/667 nm fluorescence (AID 1131); settings: fibrinogen-A647 binding fluorescence, higher = more signal;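 also: z-score merges 667 nm fluorescence with per-spot signal-to-noise over triplicate slides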
[7] = biological target: Follistatin (Homo sapiens) (UniProt P19883); test: follistatin binders on small-molecule microarrays, primary screen, biochemical, small-molecule microarray, 635/667 nm fluorescence (AID 1132); settings: FST binding, 635 nm fluorescence, higher = more signal
[8] = biological target: Fibroblast growth factor 2 (Homo sapiens) (UniProt P09038); test: FGF2 binders on small-molecule microarrays, primary screen, biochemical, small-molecule microarray, 635/667 nm fluorescence (AID 1133); settings: small-molecule microarray binding, FGF2, fluorescence 635/667; higher = more signal
[9] = mitochondrial membrane potential change in A549 cells, profiling panel, cell-based, JC-1 fluorescence, basal, 24 h, 100 nL (AID 1138); settings: higher = more signal;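 also: A549 lung adenocarcinoma cells under basal conditions with no added stimulus; test concentration not given here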
Lefty1 = Lefty1 binders on small-molecule microarrays, primary screen, biochemical, small-molecule microarray, 635/667 nm fluorescence (AID 1139); settings: small-molecule microarray binding, fluorescence 635/667; higher = more signal
[10] = tested on: wheat germ agglutinin (Triticum aestivum), Alexa647-labelled; test: wheat germ agglutinin binders on compound microarrays, profiling panel, artefact control for SMM control-protein annotation, biochemical, small-molecule microarray, 635/667 nm fluorescence (AID 1140); settings: WGA-A647 binding, 635 nm fluorescence, higher = more signal;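 also: score merges 667 nm feature emission with signal to noise over triplicate slides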
[11] = tested on: Wnt5a (protein binding on small-molecule microarray); test: Wnt5a binders on small-molecule microarray, primary screen, biophysical, 635/667 nm fluorescence (AID 1142); settings: 635 nm fluorescence, higher = more signal;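 also: fluorescence read at 667 nm with signal to noise per printed feature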
[12] = cell viability in Huh7 cells, primary screen, cytotoxicity control for HCV replication inhibitor project, CellTiter-Glo luminescence, basal, 48 h (AID 1143); settings: Huh7 HCV replicon, higher = more signal, called active from +8 up or from −8 down;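 also: Huh7 hepatoma cells carrying a hepatitis C replication reporter with no stimulus; test concentration not given here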
[13] = CREB reporter modulators under forskolin, primary screen, cell-based, PC12, CRE-LacZ reporter, forskolin-stimulated (AID 1146); settings: luminescence, 4.5 h, higher = more signal, called active from +8 up or from −8 down;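 also: PC12 cells with 6xCRE LacZ reporter stimulated by forskolin 10 µM; beta-galactosidase reporter signal reflecting CREB driven transcription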
[14] = biological target: Streptavidin (Streptomyces avidinii) (UniProt P22629); test: streptavidin binders on small-molecule microarray, primary screen, artefact control for SMM compound annotation, biophysical, 635/667 nm fluorescence (AID 1147); settings: streptavidin binding, higher = more signal;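 also: signal reflects streptavidin binding to arrayed compounds as a control protein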
[15] = small-molecule binders of probe aInhba, primary screen, biochemical, small-molecule microarray, 635/667 nm fluorescence (AID 1148); settings: higher = more signal;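 also: score merges 667nm spot fluorescence with signal-to-noise for antibody binding to printed compounds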
Torsin-1A (Homo sapiens) [16] = biological target: Torsin-1A (Homo sapiens) (UniProt O14656); test: torsin A binders from cell lysate, primary screen, small-molecule microarray, wild-type, 635/667 nm (AID 1149); settings: COS7 hTOR1A-WT lysate, 635 nm fluorescence, higher = more signal
Torsin-1A (Homo sapiens) [17] = biological target: Torsin-1A (Homo sapiens) (UniProt O14656); test: small-molecule binders of mutant TOR1A in lysate, primary screen, cell lysate, small-molecule microarray, COS7 lysate, 635/667 nm fluorescence (AID 1150); settings: COS7 hTOR1A mutant lysate, 635 nm fluorescence, higher = more signal;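 also: score pools 667 nm emission and signal to noise measuring lysate protein binding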
[18] = tested on: Sonic hedgehog protein (Shh); test: small-molecule binders of Shh protein, primary screen, biochemical, small-molecule microarray, 635/667 nm fluorescence (AID 1151); settings: small-molecule microarray binding, 635 nm fluorescence; higher = more signal;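 also: Shh protein binding to compounds spotted on small-molecule microarray slides; score combines spot fluorescence intensity with signal-to-noise across triplicate slides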

Row | Structure (SMILES) | composite z-score [1] | composite z-score (Sam68 (KHDRBS1)) | composite z-score [2] | composite z-score [3] | composite z-score [4] | composite z-score [5] | composite z-score [6] | composite z-score [7] | composite z-score [8] | z-score [9] | composite z-score (Lefty1) | composite z-score [10] | composite z-score [11] | z-score [12] | z-score [13] | composite z-score [14] | composite z-score [15] | composite z-score (Torsin-1A (Homo sapiens) [16]) | composite z-score (Torsin-1A (Homo sapiens) [17]) | composite z-score [18]
1 | CN1/C(=N\P(=O)(Oc2ccccc2)Oc2ccccc2)CC(c2ccc(CO)cc2)=CC1C1CC1 (stereo not given) | 1.22 | 0.814 | -0.695 | 0.967 | 0.637 | 1.33 | 0.528 | 0.894 | 0.0676 | 1.66 | 0.104 | 1.25 | 0.182 | inactive: -3.05 | inactive: -1.12 | 0.684 | 0.0566 | 0.0112 | 0.957 | 0.958
2 | COP(=O)(/N=C1/CC(CCCO)=CC(c2ccc(CN3CCCC3)cc2)N1Cc1cc2c(cc1Br)OCO2)OC (stereo not given) | 0.538 | 0.0067 | 1.24 | 0.606 | 0.761 | 0.517 | 0.524 | 1.27 | 1.34 | 1.33 | 0.963 | 0.807 | 0.386 | inactive: -1.81 | inactive: -1.8 | 0.481 | 0.362 | 0.792 | 0.668 | 0.953
3 | COP(=O)(/N=C1/CC(CCCO)=CC(C2CC2)N1Cc1cccc(OC(F)(F)F)c1)OC (stereo not given) | 0.568 | -0.521 | -0.092 | 0.399 | 1.45 | -0.367 | 0.333 | 0.715 | -0.0206 | 1.26 | 0.0602 | -0.0548 | -0.0514 | inactive: -1.6 | inactive: -0.0557 | 0.453 | 0.117 | 1.02 | 0.547 | 0.752
4 | COP(=O)(/N=C1/CC(CCCO)=CC(C2CC2)N1C)OC (stereo not given) | -0.421 | 0.206 | 0.124 | 0.397 | 0.142 | 0.198 | 1 | 0.739 | 0.131 | 1.14 | -0.0188 | 0.264 | 0.18 | inactive: -0.79 | inactive: -1.16 | 0.53 | -0.008 | 0.899 | 0.321 | 0.506
5 | CN1/C(=N\P(=O)(Oc2ccccc2)Oc2ccccc2)CC(c2ccc(CO)cc2)=CC1c1cccs1 (stereo not given) | 0.983 | 0.238 | -0.649 | 0.653 | 1.68 | -0.161 | 0.395 | 0.381 | 0.196 | 1.41 | -0.442 | 0.554 | 0.0271 | inactive: -3.21 | inactive: -0.93 | 0.476 | 0.0342 | 0.31 | 1.1 | 0.22
